Laboratory results as given in patent US20220372040A1, “METTL3 MODULATORS” (Accent Therapeutics, Inc., priority 2020, published 2022).
pIC50: −log10 of the molar value.

The chains behind the UniProt entries cited, without tags or fusion partners.
UniProt O14744, whole entry: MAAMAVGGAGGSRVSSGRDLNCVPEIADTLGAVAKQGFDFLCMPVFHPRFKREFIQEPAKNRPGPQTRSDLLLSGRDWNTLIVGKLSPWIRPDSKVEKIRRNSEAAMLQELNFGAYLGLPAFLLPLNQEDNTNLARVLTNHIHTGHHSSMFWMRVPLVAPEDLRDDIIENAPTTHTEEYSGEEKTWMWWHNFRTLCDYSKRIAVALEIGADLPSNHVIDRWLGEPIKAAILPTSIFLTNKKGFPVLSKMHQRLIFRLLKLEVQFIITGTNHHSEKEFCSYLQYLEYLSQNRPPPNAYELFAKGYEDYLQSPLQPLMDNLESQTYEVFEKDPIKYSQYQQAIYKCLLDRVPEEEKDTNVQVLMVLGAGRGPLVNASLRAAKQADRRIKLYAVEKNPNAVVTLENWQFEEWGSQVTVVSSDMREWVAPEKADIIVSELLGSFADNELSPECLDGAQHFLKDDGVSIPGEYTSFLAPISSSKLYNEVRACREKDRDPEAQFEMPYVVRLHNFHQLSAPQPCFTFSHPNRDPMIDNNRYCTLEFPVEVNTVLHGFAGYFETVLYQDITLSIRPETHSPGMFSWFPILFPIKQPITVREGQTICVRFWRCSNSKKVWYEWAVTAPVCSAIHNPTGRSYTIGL
UniProt Q9UBP6, whole entry: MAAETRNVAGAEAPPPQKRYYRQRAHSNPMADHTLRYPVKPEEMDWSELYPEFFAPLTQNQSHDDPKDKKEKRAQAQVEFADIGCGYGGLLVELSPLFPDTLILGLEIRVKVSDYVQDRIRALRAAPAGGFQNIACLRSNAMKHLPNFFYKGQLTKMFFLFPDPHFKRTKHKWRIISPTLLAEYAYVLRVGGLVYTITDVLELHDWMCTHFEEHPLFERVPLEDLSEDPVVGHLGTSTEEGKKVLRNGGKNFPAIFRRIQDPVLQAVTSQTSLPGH
UniProt Q86U44, whole entry: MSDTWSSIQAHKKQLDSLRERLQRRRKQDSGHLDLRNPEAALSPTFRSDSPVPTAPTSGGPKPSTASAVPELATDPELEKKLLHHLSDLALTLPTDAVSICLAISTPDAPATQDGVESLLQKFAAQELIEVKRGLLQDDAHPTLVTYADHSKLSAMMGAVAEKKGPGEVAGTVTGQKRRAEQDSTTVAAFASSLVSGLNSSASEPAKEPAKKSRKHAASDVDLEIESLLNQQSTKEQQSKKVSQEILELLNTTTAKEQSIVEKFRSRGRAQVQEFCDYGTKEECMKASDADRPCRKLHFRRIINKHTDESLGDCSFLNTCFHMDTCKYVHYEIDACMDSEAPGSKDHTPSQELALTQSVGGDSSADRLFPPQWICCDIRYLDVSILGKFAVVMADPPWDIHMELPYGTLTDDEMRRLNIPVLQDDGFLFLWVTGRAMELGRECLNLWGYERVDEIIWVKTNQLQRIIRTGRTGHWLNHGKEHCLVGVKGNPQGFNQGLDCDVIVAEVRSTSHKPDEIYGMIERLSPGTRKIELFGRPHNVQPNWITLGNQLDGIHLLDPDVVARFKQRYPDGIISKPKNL
UniProt Q9BQA1, whole entry partner: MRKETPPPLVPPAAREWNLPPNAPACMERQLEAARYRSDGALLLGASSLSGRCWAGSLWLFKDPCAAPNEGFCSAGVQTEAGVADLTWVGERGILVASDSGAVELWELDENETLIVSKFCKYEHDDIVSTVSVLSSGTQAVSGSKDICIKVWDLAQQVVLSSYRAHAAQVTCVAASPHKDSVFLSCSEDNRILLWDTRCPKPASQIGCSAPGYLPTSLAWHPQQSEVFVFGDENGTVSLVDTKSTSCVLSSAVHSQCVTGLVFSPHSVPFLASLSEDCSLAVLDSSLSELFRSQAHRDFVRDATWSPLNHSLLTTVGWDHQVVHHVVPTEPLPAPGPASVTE
UniProt Q9HCE5, whole entry partner: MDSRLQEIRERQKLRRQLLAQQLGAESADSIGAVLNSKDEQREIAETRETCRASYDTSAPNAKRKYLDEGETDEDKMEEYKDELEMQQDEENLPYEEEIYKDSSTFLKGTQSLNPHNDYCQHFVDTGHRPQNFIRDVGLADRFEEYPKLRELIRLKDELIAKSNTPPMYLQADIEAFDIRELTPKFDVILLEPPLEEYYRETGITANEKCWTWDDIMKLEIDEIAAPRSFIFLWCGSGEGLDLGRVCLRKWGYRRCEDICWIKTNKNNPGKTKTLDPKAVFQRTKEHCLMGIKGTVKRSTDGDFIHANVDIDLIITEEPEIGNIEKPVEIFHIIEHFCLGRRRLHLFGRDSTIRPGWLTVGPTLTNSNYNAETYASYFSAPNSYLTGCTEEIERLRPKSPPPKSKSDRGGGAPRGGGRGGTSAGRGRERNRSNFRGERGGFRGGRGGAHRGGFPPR
UniProt P57081, whole entry partner: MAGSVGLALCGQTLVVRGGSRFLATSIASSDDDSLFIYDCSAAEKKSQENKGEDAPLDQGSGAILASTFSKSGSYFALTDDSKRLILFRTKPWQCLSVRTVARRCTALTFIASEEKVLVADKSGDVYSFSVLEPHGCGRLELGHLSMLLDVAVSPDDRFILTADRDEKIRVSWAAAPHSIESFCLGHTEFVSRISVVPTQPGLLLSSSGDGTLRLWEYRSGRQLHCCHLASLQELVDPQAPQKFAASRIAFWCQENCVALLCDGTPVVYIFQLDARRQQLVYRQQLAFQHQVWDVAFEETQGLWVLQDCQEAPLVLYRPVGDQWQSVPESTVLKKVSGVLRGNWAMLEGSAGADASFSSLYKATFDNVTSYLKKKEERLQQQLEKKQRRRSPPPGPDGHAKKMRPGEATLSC

What was measured:
[1] = system: MOLM-13 cells; assay: MOLM-13 48 Hour cell proliferation assay (Cell Titer-Glo); details: read-out: MOLM-13 48 Hour cell proliferation IC50
Method: MOLM-13 48 Hour Cell Proliferation Assay
MOLM-13 (DSMZ) cells were seeded at 1000 cells per well in a volume of 44 μL in a Falcon 384-well tissue culture treated clear bottom microplate in RPMI 1640 media containing 10% fetal bovine serum using a Multidrop Combi (ThermoFisher Scientific). Cells were incubated overnight at 37° C. in a humidified tissue culture incubator. The Mosquito® HTS Liquid Handler was used to make a compound/media intermediate plate by aliquoting […] of compound from the initial compound dilution plate (concentrations ranging from 10.0 mM to 38.0 nM in 100% DMSO) into a V bottom 384-well screen matrix plate containing 49 µL of media containing the appropriate serum (50-fold dilution, 2% DMSO). […] The plate was read on an EnVision plate reader (Perkin Elmer) using the Ultra Sensitive Luminescence protocol. Data analysis was performed by normalizing the raw luminescence units to an average of the positive control values for staurosporine (100% cell death) and the negative control values for DMSO (0% cell death). An IC50 was calculated using a 4-parameter logistic nonlinear regression model in GraphPad Prism.

[2] = molecular target: PRMT5-MEP50 (Homo sapiens, UniProt O14744); assay: PRMT5 assay (3H-SAM flashplate scintillation); details: read-out: PRMT5 IC50; PRMT5-MEP50 2.5 nM, histone H4 peptide 100 nM, 3H-SAM 250 nM, 60 min
Method: Assays were performed in a 25 μl-volume in 384-well V-bottom polypropylene microplates (Greiner Bio-One, cat. No. 781280) at ambient temperature. Optimized 1× assay buffer was 20 mM Tris-HCl pH 8.0, 1 mM DTT, […]. For compound screening PRMT5-MEP50 (final concentration, f.c.=2.5 nM) was added using a Multidrop Combi (ThermoFisher Scientific, Waltham, Mass.) and preincubated for 5 min. Reactions were started by adding 3′ biotinylated histone H4 peptide acetylated on serine 1 (Ac-[…]-Biotin) (f.c.=100 nM) and 3H-SAM (f.c.=250 nM) substrates. Reactions proceeded for 60 minutes and were quenched with excess non-radioactive SAM (f.c.=15 μM). The reactions were then transferred to streptavidin-coated flashplates and incubated for 2 hours at 25° C. Following two washing cycles with 0.1% Tween-20, the plates were sealed and read on a TopCount (PerkinElmer, Waltham, Mass.) plate-based scintillation counter. For determination of kinetic parameters, reaction times were optimized so that measurements were taken during the initial velocity phase of the reaction.

[3] = system: m^6 A in cellular mRNA of MOLM-13 cells; assay: m^6 A-mRNA LC-MS/MS assay (m^6 A cellular assay); details: read-out: m^6A IC50, 24 hours incubation, LC-MS/MS of m^6 A/A in mRNA
Method: m^6 A-mRNA LC-MS/MS Assay
5×10^6 MOLM-13 (DSMZ) cells were seeded into 10 cm dishes in RPMI 1640 media containing 10% fetal bovine serum and placed in a humidified tissue culture incubator at 37° C. overnight. Compounds were resuspended in 100% DMSO and dosed into each dish at a fixed concentration to comprise an 8-point dose response with a 4-fold serial dilution ranging from 25 μM to 1.5 nM in 0.25% DMSO final and allowed to incubate for 24 hours in a humidified tissue culture incubator at 37° C. Cells were harvested by centrifugation followed by mRNA extraction using DTRECT Dynabeads mRNA DTRECT kit (Life Technologies). mRNA was quantified on NanoDrop spectrophotometer (Thermo Fisher Scientific) and digested into single nucleosides using Nucleoside Digestion Mix (New England Biolabs). Nucleosides are quantified with retention time on a BEH […] column (Waters) and the nucleoside-to-base ion mass transition of 282.1-150.1 (m^6 A) and 268-136 (A) on an API 6500+ triple quadrupole mass spectrometer. Quantification is performed in comparison with the standard curve, obtained from pure nucleoside standards (Selleck Chemicals) running with the same batch of samples. Percentage m^6 A in cellular mRNA is calculated as 100*(m^6 A/A).

[4] = molecular target: METTL1/WDR4 (Homo sapiens, UniProt Q9UBP6); assay: METTL1 assay (3H-SAM flashplate scintillation); details: read-out: METTL1 IC50; METTL1/WDR4 6.25 nM, RNA 25 nM, 3H-SAM 60 nM, 20 min
Method: Assays were performed in a 25 μl-volume in 384-well V-bottom polypropylene microplates (Greiner Bio-One, cat. No. 781280) at ambient temperature. Optimized 1× assay buffer was 20 mM HEPES pH 7.5, 50 mM KCl, 250 μM MgCl2, 1 mM DTT, 0.01% Tween, 0.01% BSG, 0.004 U/μl RNAseOUT (cat. No. 10777019, ThermoFisher Scientific, Waltham, Mass.). For compound screening METTL1/WDR4 (final concentration, f.c.=6.25 nM) was added using a Multidrop Combi (ThermoFisher Scientific, Waltham, Mass.) and preincubated for 5 min. Reactions were started by adding 3′ biotinylated RNA ([…]-biotin) (f.c.=25 nM) and 3H-SAM (f.c.=60 nM) substrates. Reactions proceeded for 20 minutes and were quenched with excess non-radioactive SAM (f.c.=15 μM). The reactions were then transferred to streptavidin-coated flashplates and incubated for 2 hours at 25° C. Following two washing cycles with 0.1% Tween-20, the plates were sealed and read on a TopCount (PerkinElmer, Waltham, Mass.) plate-based scintillation counter. For determination of kinetic parameters, reaction times were optimized so that measurements were taken during the initial velocity phase of the reaction.

[5] = molecular target: METTL3/METTL14 (Homo sapiens, UniProt Q86U44); assay: METTL3-14 standard enzyme assay (3H-SAM flashplate scintillation); details: read-out: METTL3 IC50; METTL3/METTL14 2.5 nM, RNA 100 nM, 3H-SAM 100 nM, 30 min
Method: METTL3-14 Standard Enzyme Assay
Assays were performed in a 25 μl-volume in 384-well V-bottom polypropylene microplates (Greiner Bio-One, cat. No. 781280) at ambient temperature. Optimized 1× assay buffer was 20 mM HEPES pH 7.5, 50 mM KCl, 250 μM MgCl2, 1 mM DTT, 0.01% Tween, 0.01% BSG, 0.004 U/μl RNAseOUT (cat. No. 10777019, ThermoFisher Scientific, Waltham, Mass.). For compound screening METTL3/METTL14 (final concentration, f.c.=2.5 nM) was added using a Multidrop Combi (ThermoFisher Scientific, Waltham, Mass.) and preincubated for 5 min. Reactions were started by adding 3′ biotinylated RNA (UCUGGACUAAA-biotin) (f.c.=100 nM) and 3H-SAM (f.c.=100 nM) substrates. Reactions proceeded for 30 minutes and were quenched with excess non-radioactive SAM (f.c.=15 μM). The reactions were then transferred to streptavidin-coated flashplates and incubated for 2 hours at 25° C. Following two washing cycles with 0.1% Tween-20, the plates were sealed and read on a TopCount (PerkinElmer, Waltham, Mass.) plate-based scintillation counter. For determination of kinetic parameters, reaction times were optimized so that measurements were taken during the initial velocity phase of the reaction.

## CNc1ccc2ccc(OCc3cncc(-n4cc(C5CCCC5)c5c(N)ncnc54)c3)cc2n1 [Compound I-58]
[1]
  pIC50: 5.00 to 6.00
[2]
  pIC50: < 6.00
[3]
  pIC50: 5.00 to 6.00
[4]
  pIC50: < 6.00
[5]
  pIC50: 7.00 to 8.00
